Test results published in patent US9233171B2, “Method of treatment of tumors that are resistant to EGFR antibody therapies by EGFR antibody cytotoxic agent conjugate” (ImmunoGen, Inc., priority 2011, dated 2016).

Tests used:
H226 cell line = test: in vitro cytotoxic assay, H226; assay type: cell-based
Experimental: (§1) The cytotoxic assay was performed as follows.
NSCLC cell lines with mesenchymal histology are generally more resistant to gefitinib than those with epithelial histology (Yauch R L. et al. Clin Cancer Res 11: 8686 (2005)). […] H226 cell line is a squamous cell carcinoma with mesenchymal histology. Despite of high EGFR expression, H226 cell line is resistant to gefitinib (Yauch R L. et al. Clin Cancer Res 11: 8686 (2005)). […] The non-binding control conjugate, chKTI-SMCC-DM1 was only cytotoxic at ˜160 fold higher concentration than the huEGFR-7R-SMCC-DM1 conjugate.

Detroit 562 = test: in vitro cytotoxicity assay, Detroit 562; assay type: cell-based; conditions: Detroit562
Experimental: as §1
In contrast, cetuximab and the huEGFR-7R antibody had no effect on the tumor cell growth.

HCC827 ER (Aichi) cells = test: in vitro cytotoxicity assay, HCC827 ER (Aichi); assay type: cell-based
Experimental: as §1
(§2) The HCC827 ER cell line contains high MET gene copy number and the HCC827 EPR cell line carries T790M EGFR mutation (Suda K. et al. Clin Cancer Res 16: 5489 (2010)). These cell lines reflect the two major mechanisms of resistance against EGFR tyrosine kinase inhibitors (Sequist L. et al. Sci Transl Med 3: 75ra26 (2011)).

HCC827 EPR (Aichi) cells = test: in vitro cytotoxicity assay, HCC827 EPR (Aichi); assay type: cell-based
Experimental: as §1, §2

HCC827 cell line = test: in vitro cytotoxic assay, HCC827 in absence or presence of HGF

## cetuximab
H226 cell line
  effect on tumor cell growth: neither the huEGFR-7R antibody nor cetuximab had effect
Detroit 562
  effect on tumor cell growth: had no effect
HCC827 ER (Aichi) cells
  sensitivity / resistance: highly resistant
HCC827 EPR (Aichi) cells
  sensitivity / resistance: highly resistant
HCC827-ER cell line
  cytotoxic effect: little effect
HCC827-ER-E4 cell line
  cytotoxic effect: little effect
HCC827 cell line; HCC827 + 50 ng/mL HGF
  cell growth inhibition: further reduced
HCC827 cell line; HCC827, absence of HGF
  cell growth inhibition: marginal activities
